The target of assay [1] is Bifunctional epoxide hydrolase 2 (Mus musculus, UniProt P34914).
For a further assay, the species on record is Mus musculus. The experiment in a line: animal or person. As to conditions: po, read-out: INH.

By UniProt entry, the sequences of proteins in these tests, tags left out. Where a name states a change or a piece, a line headed by the entry shows the natural chain unless it says otherwise.
UniProt P34914: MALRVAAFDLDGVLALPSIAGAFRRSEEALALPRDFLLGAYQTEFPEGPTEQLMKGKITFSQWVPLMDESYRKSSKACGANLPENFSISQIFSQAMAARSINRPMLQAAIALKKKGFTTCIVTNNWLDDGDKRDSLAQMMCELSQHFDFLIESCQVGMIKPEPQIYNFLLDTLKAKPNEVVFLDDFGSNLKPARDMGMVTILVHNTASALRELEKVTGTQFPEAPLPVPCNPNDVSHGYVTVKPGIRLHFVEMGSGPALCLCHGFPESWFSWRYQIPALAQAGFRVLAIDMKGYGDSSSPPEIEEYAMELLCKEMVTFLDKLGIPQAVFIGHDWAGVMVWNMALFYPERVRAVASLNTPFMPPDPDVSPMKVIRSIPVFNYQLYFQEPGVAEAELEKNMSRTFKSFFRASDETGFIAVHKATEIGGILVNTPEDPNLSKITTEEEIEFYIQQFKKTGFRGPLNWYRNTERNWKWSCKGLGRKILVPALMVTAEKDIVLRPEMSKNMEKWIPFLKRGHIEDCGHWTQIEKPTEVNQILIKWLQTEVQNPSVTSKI

SMILES strings stand for the structures.

In turn, `CC(=O)N1CCC(NC(=O)NC23CC4CC(CC(C4)C2)C3)CC1` [AR9281] gave a 50% inhibitory concentration (IC50) in assay [1] of 3 nM. The inhibition in vivo at 100 mg/kg in the assay listed under Mus musculus stood at 70%.
